This passage reports Log cell kill and C10 results from ChEMBL document CHEMBL1134417, “Hypoxia-selective antitumor agents. 16. Nitroarylmethyl quaternary salts as bioreductive prodrugs of the alkylating agent mechlorethamine” (2001).

The subject of assay [1] is Mus musculus. As to the kind of experiment: in vivo activity against aerobic and hypoxic cells in RIF-1 tumors when administered at a dose of 56.2 umol/kg in mice.
Assay [2] deals with Mus musculus. As to the kind of experiment: in vivo activity against aerobic and hypoxic cells in RIF-1 tumors when administered at a dose of 56.2 umol/kg in mice 30 min before exposure to radiation.
Assay [3] deals with EMT6. Kind of assay: Ability to reduce surviving fraction of EMT6 cells to 10% when exposed to N2 for 3 hrs. Conditions: Mus musculus.
Assay [4] relates to Mus musculus. Kind of assay: in vivo activity against aerobic and hypoxic cells in RIF-1 tumors when administered at a dose of 56.2 umol/kg in mice after 5 min of exposure to radiation.
The subject of assay [5] is EMT6. Kind of assay: Hypoxic cytotoxicity ratio was determined. The following applies: Mus musculus.
Assay [6] relates to EMT6. As to the kind of experiment: Ability to reduce surviving fraction of EMT6 cells to 10% when exposed to air for 3 hrs. Conditions: Mus musculus.
In assay [7] the test system is Mus musculus. Kind of assay: in vivo activity against aerobic and hypoxic cells in RIF-1 tumors when administered at a dose of 23.7 umol/kg in mice after 5 min of exposure to radiation.
For assay [8], the system named is Mus musculus. Kind of assay: in vivo activity against aerobic and hypoxic cells in RIF-1 tumors when administered at a dose of 23.7 umol/kg in mice.
The subject of assay [9] is Mus musculus. Kind of assay: in vivo activity against aerobic and hypoxic cells in RIF-1 tumors when administered at a dose of 23.7 umol/kg in mice 30 min before exposure to radiation.
The subject of assay [10] is Mus musculus. As to the kind of experiment: in vivo activity against aerobic and hypoxic cells in RIF-1 tumors when administered at a dose of 42.1 umol/kg in mice.
Assay [11] deals with Mus musculus. Kind of assay: in vivo activity against aerobic and hypoxic cells in RIF-1 tumors when administered at a dose of 42.1 umol/kg in mice 30 min before exposure to radiation.
Assay [12] has as its system Mus musculus. As to the kind of experiment: in vivo activity against aerobic and hypoxic cells in RIF-1 tumors when administered at a dose of 42.1 umol/kg in mice after 5 min of exposure to radiation.

As to `Cn1ccc(C[N+](C)(CCCl)CCCl)c1[N+](=O)[O-]`, the figures for the Log cell kill in the assay with Mus musculus [1], in the assay on Mus musculus [2] and in the assay on Mus musculus [4] were 0.24, 0.38 and 0.47, respectively. The C10 is 18 µM with EMT6 [3], 16 µM in the assay with EMT6 [5] and 245 µM in the assay with EMT6 [6].
Turning to `Cn1ncc([N+](=O)[O-])c1C[N+](C)(CCCl)CCCl`, the Log cell kill worked out at 0.1 in the assay with Mus musculus [7], 0.12 in the assay on Mus musculus [8] and 0.17 with Mus musculus [9]. Besides, the C10 came to 3.5 µM in the assay with EMT6 [3], 17 µM in the assay on EMT6 [5] and 85 µM with EMT6 [6].
Regarding `Cn1c(C[N+](C)(CCCl)CCCl)ccc1[N+](=O)[O-]`, the Log cell kill with Mus musculus [10] is 0.25; in the assay with Mus musculus [11] it was 0.48; in the assay with Mus musculus [12], 0.23. The C10 came to 27 µM in the assay on EMT6 [3], 12 µM with EMT6 [5] and 320 µM in the assay on EMT6 [6].
